SMILES strings stand for the structures. “And” between values parts separate entries of the source, which are not always exact repeats. Equal entries are not always repeated.

Protein sequences, listed by entry. Tags and fused reporters are not part of them.
UniProt P21917, whole entry: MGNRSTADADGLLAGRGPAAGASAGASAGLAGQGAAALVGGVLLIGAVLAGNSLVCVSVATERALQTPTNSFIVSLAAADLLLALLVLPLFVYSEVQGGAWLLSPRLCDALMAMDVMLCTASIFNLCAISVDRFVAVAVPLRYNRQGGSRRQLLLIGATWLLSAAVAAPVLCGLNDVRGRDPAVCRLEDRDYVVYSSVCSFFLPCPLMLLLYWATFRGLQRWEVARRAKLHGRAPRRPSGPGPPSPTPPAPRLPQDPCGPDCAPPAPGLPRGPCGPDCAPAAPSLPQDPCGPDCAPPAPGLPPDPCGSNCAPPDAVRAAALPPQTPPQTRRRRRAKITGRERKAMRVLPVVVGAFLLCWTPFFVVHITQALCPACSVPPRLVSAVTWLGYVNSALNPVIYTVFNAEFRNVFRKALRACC

The assay addresses D(4) dopamine receptor (Homo sapiens, UniProt P21917).

By Ki is commonly meant a measure of affinity in units of concentration, obtained from inhibition or displacement. A higher Ki goes with lower affinity. As for `CCN1CCCC1CNC(=O)c1cc(S(N)(=O)=O)ccc1OC` (stereo unspecified) [N-[(1-ethylpyrrolidin-2-yl)methyl]-2-methoxy-5-sulfamoylbenzamide], the inhibition constant Ki was 965 nM and 1010 nM.

(Values after BindingDB's records for doi:10.1016/0014-2999(93)90365-o (University of Toronto, 1993).)
